From ChEMBL document CHEMBL2029285, “Structure-based design of novel class II c-Met inhibitors: 1. Identification of pyrazolone-based derivatives” (J Med Chem, 2012)

Assays:
[1] = target: T1, Hepatocyte growth factor receptor (Homo sapiens, UniProt P08581); assay: Inhibition of recombinant c-met-mediated gastrin phosphorylation by HTRF assay
[2] = target: T1, Hepatocyte growth factor receptor; assay: Inhibition of HGF-mediated c-met autophosphorylation in serum-starved human PC3 cells after 1 hr by electrochemiluminescent immunoassay; format: cell-based, PC-3

- Ki [1]: 0.001 µM
- IC50 [2]: 0.02 µM
SMILES: COc1cc2nccc(Oc3ccc(NC(=O)c4c(C)n(C)n(-c5ccccc5)c4=O)cc3F)c2cc1OC
